53 compounds from PubChem BioAssay AID651699 (Sanford-Burnham Center for Chemical Genomics, 2012) can be followed below.

By UniProt entry, the sequences of proteins in these tests, tags left out.
UniProt P61081, whole entry, looked up: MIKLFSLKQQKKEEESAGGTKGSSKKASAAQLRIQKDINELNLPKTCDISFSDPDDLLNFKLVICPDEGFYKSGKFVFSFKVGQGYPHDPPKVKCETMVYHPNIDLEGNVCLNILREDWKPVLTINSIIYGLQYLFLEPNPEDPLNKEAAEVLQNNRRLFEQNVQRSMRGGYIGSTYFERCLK
UniProt Q13564, whole entry, looked up: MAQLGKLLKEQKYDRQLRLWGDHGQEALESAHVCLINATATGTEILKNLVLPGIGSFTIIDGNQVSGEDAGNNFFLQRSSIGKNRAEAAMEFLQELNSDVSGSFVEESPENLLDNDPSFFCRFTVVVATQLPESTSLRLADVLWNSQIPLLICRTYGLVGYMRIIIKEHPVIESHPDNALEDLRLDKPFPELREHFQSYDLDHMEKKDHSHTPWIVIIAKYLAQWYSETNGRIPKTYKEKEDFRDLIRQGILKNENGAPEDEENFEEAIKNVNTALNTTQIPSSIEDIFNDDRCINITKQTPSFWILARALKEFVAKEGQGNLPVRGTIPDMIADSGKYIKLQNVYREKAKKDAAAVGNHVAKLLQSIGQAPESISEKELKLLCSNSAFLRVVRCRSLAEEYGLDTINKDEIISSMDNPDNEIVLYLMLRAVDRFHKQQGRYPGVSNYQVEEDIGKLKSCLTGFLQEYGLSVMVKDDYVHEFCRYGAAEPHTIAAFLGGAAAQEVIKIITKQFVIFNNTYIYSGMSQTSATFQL

The list shows a part of the results, in another mix than the full data. Active and inactive are the calls of the source. Cut-off read from the data, not from the text of the source: active = inhibition above about 36%; inactive = the rest.

This assay has as its target NEDD8-conjugating enzyme Ubc12 (Homo sapiens) + NEDD8-activating enzyme E1 regulatory subunit (Homo sapiens) (UniProt P61081+Q13564). The experiment in a line: inhibitors of cullin neddylation, primary screen, biochemical, TR-FRET, uHTS, NAE and Ubc12 (AID 651699). Particulars: at 25 µM, active compounds read high. In general terms: In TR-FRET formats the signal depends on donor and acceptor labels being close together.
For the compound `O=[N+]([O-])c1cc([N+](=O)[O-])c(O)c([N+](=O)[O-])c1.c1ccc(Oc2ccncc2)cc1`, the inhibition (usually the change of the read-out against control, counted positive when it falls) was inactive: -36.3%.
On to `CCOC(=O)c1ccc(NP(C)(=O)Oc2ccc(OC)cc2)cc1` (stereo not drawn), for which the inhibition was inactive: 5.15%.
Consider `CCOP(C)(=S)SCC(=O)NC(C)C(=O)O` (stereo not drawn), for which the inhibition is inactive: -3.65%.
Consider `CP(=O)(Nc1ccccn1)Oc1ccc(Cl)cc1` (stereo not drawn), for which the inhibition is inactive: 7.75%.
On to `CP(=O)(Oc1ccccc1)OC(c1ccccc1)C(F)(F)F` (stereo not drawn), for which the inhibition was inactive: 6.07%.
For `CP(=O)(Nc1ccc(SC(F)(F)F)cc1)Oc1ccc(Cl)cc1` (stereo not drawn), the inhibition is inactive: -0.04%.
In the case of `Cc1cccc(C)c1OP(C)(=O)Nc1ccc(SC(F)(F)F)cc1` (stereo not drawn), the inhibition was inactive: 1.45%.
Turning to `Cc1ccc(Nc2c([N+](=O)[O-])cc([N+](=O)[O-])cc2[N+](=O)[O-])cc1`, the inhibition is inactive: -42.2%.
`Cc1cc(C)cc(OP(C)(=O)Nc2ccc(SC(F)(F)F)cc2)c1` (stereo not drawn): the inhibition is inactive: -2.78%.
As to `CP(=O)(NC(=O)Nc1ccccc1)Oc1ccccc1` (stereo not drawn), the inhibition is inactive: 7.01%.
Turning to `CCc1ccc(OP(C)(=O)N2CCN(c3ccc([N+](=O)[O-])cc3)CC2)cc1` (stereo not drawn), the inhibition is inactive: -31.6%.
For the compound `CP(=S)(Nn1cnnc1)Oc1ccccc1` (stereo not drawn), the inhibition was inactive: 7.36%.
Turning to `CP(=O)(Nc1ccccc1Br)Oc1ccccc1` (stereo not drawn), the inhibition is inactive: 0.52%.
`COc1ccccc1OP(C)(=O)Nc1ccccc1` (stereo not drawn): the inhibition was inactive: 2.6%.
Consider `Cc1ccc(NP(C)(=O)Oc2ccccc2)c(C)c1` (stereo not drawn), for which the inhibition was inactive: 0.97%.
For the compound `COc1ccccc1OP(C)(=O)Nc1ccc(C)cc1` (stereo not drawn), the inhibition is inactive: 1.53%.
For `CCOC(=O)c1ccc(NP(C)(=O)Oc2ccccc2)cc1` (stereo not drawn), the inhibition was inactive: -3.45%.
Consider `Cc1cc(C)cc(OP(C)(N)=O)c1` (stereo not drawn), for which the inhibition was inactive: 0.44%.
In the case of `COc1ccc(OP(C)(=O)Nc2cccc(F)c2)cc1` (stereo not drawn), the inhibition is inactive: 4.29%.
For `COc1ccccc1OP(C)(=O)Nc1cc(Cl)ccc1C` (stereo not drawn) the value was inactive: -3.2%; for `O=[N+]([O-])c1cc([N+](=O)[O-])c(Nc2cccnc2)c([N+](=O)[O-])c1`, inactive: -39.1%; for `O=[N+]([O-])c1ccc2c(c1)C=Nc1ccccc1O2`, inactive: -14.1%.
On to `Cc1cccc(C)c1OP(C)(N)=O` (stereo not drawn), for which the inhibition was inactive: -2.41%.
In the case of `CC(C)(C)c1ccc(OP(C)(=O)Nc2ccc(SC(F)(F)F)cc2)cc1` (stereo not drawn), the inhibition was inactive: -0.06%.
As for `COc1ccccc1-c1ccccn1.O=[N+]([O-])c1cc([N+](=O)[O-])c(O)c([N+](=O)[O-])c1`, the figure is inactive: -24.5%.
Consider `CCN(CC)CCCOC(=O)C(O)(c1ccccc1)c1ccccc1`, for which the inhibition was inactive: 0.17%.
As to `Cc1ccc(C)c(NP(C)(=O)Oc2ccccc2)c1` (stereo not drawn), the inhibition was inactive: -1.96%.
As for `Cc1cc(C)cc(OP(C)(=O)Nc2ccccn2)c1` (stereo not drawn), the figure is inactive: 7.98%; as for `CP(=O)(Nc1cccc(Br)c1)Oc1ccccc1` (stereo not drawn), inactive: 0.49%; as for `COc1ccccc1OP(C)(=O)Nc1cccc(Br)c1` (stereo not drawn), inactive: -3.79%.
For `CCOC(=O)c1ccc(NP(C)(=O)Oc2cc(C)cc(C)c2)cc1` (stereo not drawn) the value was inactive: 4.94%.
Take `Cc1cc(C)cc(OP(C)(=O)Nc2ccc(C)cc2C)c1` (stereo not drawn): the inhibition is inactive: -1.55%.
On to `CC1=NCCc2c1[nH]c1ccccc21.O=[N+]([O-])c1cc([N+](=O)[O-])c(O)c([N+](=O)[O-])c1`, for which the inhibition is inactive: 4.31%.
On to `O=C(O)c1cccc(Nc2c([N+](=O)[O-])cc([N+](=O)[O-])cc2[N+](=O)[O-])c1`, for which the inhibition was inactive: -44.2%.
Consider `CN1CCCCC1COC(=O)C1(O)c2ccccc2CCc2ccccc21` (stereo not drawn), for which the inhibition is inactive: -1.13%.
For `COc1ccccc1OP(C)(=O)Nc1c(C)cccc1C` (stereo not drawn) the value was inactive: 5.2%.
With `COc1ccc(-c2ccccn2)cc1.O=[N+]([O-])c1cc([N+](=O)[O-])c(O)c([N+](=O)[O-])c1`, the inhibition was active: 46.6%.
With `CCCOc1ccc(NP(C)(=O)Oc2ccc(Cl)cc2)cc1` (stereo not drawn), the inhibition is inactive: -3.95%.
Consider `CP(=O)(Nc1ccc(SC(F)(F)F)cc1)Oc1ccccc1` (stereo not drawn), for which the inhibition was inactive: 4.05%.
Turning to `CCOC(=O)C(CC)C1=NC(C)(C)Cc2ccccc21.O=[N+]([O-])c1cc([N+](=O)[O-])c(O)c([N+](=O)[O-])c1` (stereo not drawn), the inhibition is inactive: -20.5%.
For `CC1=C2N=C(C=C3N=C(C(C)=C4[N-][C@@](C)([C@@H]5N=C1[C@](C)(CCC(=O)NC[C@@H](C)OP(=O)([O-])O[C@H]1[C@@H](O)[C@@H](n6cnc7cc(C)c(C)cc76)O[C@@H]1CO)[C@H]5CC(N)=O)[C@@](C)(CC(N)=O)[C@@H]4CCC(N)=O)[C@@](C)(CC(N)=O)[C@@H]3CCC(N)=O)C(C)(C)[C@@H]2CCC(N)=O.[C-]#N.[Co+3]` the value was inactive: -25.4%.
With `O=[N+]([O-])c1cc([N+](=O)[O-])c(Nc2nnnn2CCO)c([N+](=O)[O-])c1`, the inhibition was inactive: -29.7%.
Consider `O=[N+]([O-])c1cc([N+](=O)[O-])c(-c2cnn(-c3ccccc3)c2)c([N+](=O)[O-])c1`, for which the inhibition was inactive: -44.3%.
As for `Cc1nc2ccc3ccccc3c2s1.O=[N+]([O-])c1cc([N+](=O)[O-])c(O)c([N+](=O)[O-])c1`, the figure is inactive: -49.8%; as for `O=[N+]([O-])c1cc([N+](=O)[O-])c(-n2nnc3ccccc32)c([N+](=O)[O-])c1`, inactive: -25.8%; as for `CN(Cc1cccnc1)C(=O)COc1ccc(Cl)c(Cl)c1.O=[N+]([O-])c1cc([N+](=O)[O-])c(O)c([N+](=O)[O-])c1`, inactive: -61.5%.
For the compound `CP(=O)(Nc1ccc2c(c1)OCCO2)Oc1ccccc1` (stereo not drawn), the inhibition is inactive: -2.47%.
Turning to `Cc1ccccc1NP(C)(=O)Nc1ccccc1C`, the inhibition is inactive: 4.95%.
As for `O=[N+]([O-])c1cc([N+](=O)[O-])c(C(F)(F)F)c([N+](=O)[O-])c1O`, the figure is inactive: -25.7%; as for `CP(=O)(Nc1ccc(SC(F)(F)F)cc1)Oc1ccc(F)cc1` (stereo not drawn), inactive: 1.1%.
On to `CCOP(C)(=S)SCC(=O)NC(C)(CC)C(=O)O` (stereo not drawn), for which the inhibition is inactive: -10.2%.
Consider `O=[N+]([O-])c1ccc(OP2(=O)COCCO2)cc1` (stereo not drawn), for which the inhibition was inactive: -18.4%.
`O=[N+]([O-])c1cc([N+](=O)[O-])c(NCC2CCS(=O)(=O)C2)c([N+](=O)[O-])c1` (stereo not drawn): the inhibition is inactive: -38.3%.
